Experimental data as given in US6593303B1, “Anti-tumor synergetic composition” (Pharmacia & Upjohn, S.p.A., priority 1999, dated 2003).

System: disseminated L1210 murine leukemia
Assay: Antileukemic activity against disseminated L1210 murine leukemia (cells injected iv)
Details: Oxaliplatinum alone 8 mg/kg/day ip day +3

O=C1[O][Pt]2([NH][C@@H]3CCCC[C@H]3[NH]2)[O]C1=O [Oxaliplatinum, Oxaliplatin]
Tox (number of toxic deaths/number of mice): 0/10
